The record followed here is US10543213B2, “Treatment of relapsed and/or refractory solid tumors and non-hodgkin's lymphomas” (Celgene Quanticel Research, Inc., priority 2016, dated 2020).

The data set can be described thus: 4-week toxicity study with 4-week recovery in mice.

Take `COc1ccc(-c2c(-c3ccc(C#N)c(F)c3)nc(N3CCC(N)CC3)n(C)c2=O)cc1F` [Compound A, 4-[2-(4-amino-piperidin-1-yl)-5-(3-fluoro-4-methoxy-phenyl)-1-methyl-6-oxo-1,6-dihydro-pyrimidin-4-yl]-2-fluoro-benzonitrile]: under “45 mg base/kg/dose”, the “platelet and reticulocyte counts” value is on record as “Marked decreases”. In addition, the “animals sacrificed in moribund condition” value (45 mg base/kg/dose, 4 males and 1 female, TK subgroup, as early as Day 7) was “Five”. Moreover, the “platelet and absolute reticulocytes” value (5 and 15 mg base/kg/dose) was “Mildly to moderately lower”. Further, where the note is “15 and 45 mg base/kg/dose”, the “medullary space of the sternum” value was “Minimal to marked fibrosis”; the “periosteal, endosteal, and trabecular lamellar bone (hyperostosis)” value was “Minimal to moderate increase”. In addition, the “marginal zone lymphocytes in the spleen” value (males 15, females 25, males and females 45 mg base/kg/dose) was “Minimal to marked depletion”. For the same molecule, the “accumulation after multiple dosing” value (mice) is recorded as “No accumulation”. Also, the “red cell mass (RBC count, hemoglobin, and hematocrit)” value (≥5 mg base/kg/dose) is given as “Mildly to moderately lower”. Moreover, for the setting “≥15 mg base/kg/dose”, the “bone marrow of the sternum” value is “Minimal to moderate myeloid hyperplasia” and the clinical observations entry was “Rough haircoat”.
